# Values quoted from earlier work in patent US20080260691A1, “Prodrugs of Ribavirin with Improved Hepatic Delivery” (priority 2004, published 2008).
# Conditions: orally administered
structure (smiles),measurement,value
NC(=O)c1ncn([C@@H]2O[C@H](CO)[C@@H](O)[C@H]2O)n1 [ribavirin],"toxicity, side effects",dose-dependent hemolytic anemia and depression
